Nrf2 inh: inhibitors of Nrf2 signaling; AID 504444; actives 2.1% (n = 360,000); A549 ARE-Fluc reporter, luciferase luminescence, 18-24 h; Potency, µM (series often up to 46 µM), without a hit: at the highest dose activity change, negative = inhibition, most hits filed as inhibitors; note: potency is the fitted concentration of half-maximal effect; % is set by controls: 0 for no effect and ±100 for the full control effect; nearly all actives have a fitted effect of over 60% in size
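A549 ARE_Fluc cells, 5000/well, 5% FBS OPTI-MEM; compounds in dose-response, 18-24 h at 37 °C/5% CO2; CellTiter-Fluor viability read (Ex 405/Em 525), then BugLite luciferase luminescence = Nrf2 activity.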
Nrf2 ARE act: activates Nrf2 signaling. AREc32 ARE-luciferase reporter (MCF7-derived line), luminescence, 24 h. Potency, µM (top dose mostly 46.1 µM), for the others: top-dose activation, most hits filed as activators. actives 0.31% (n = 410,000); note: potency is the fitted concentration of half-maximal effect; % of control where 0% means no effect; nearly all actives have a fitted effect of over 65% in size
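AREc32_Fluc, 1000 cells/well, OPTI-MEM + 5% FBS, o/n 37 deg C 5% CO2; 23 nL cpd by pin tool, 24 hr; Steady-Glo 30 min RT, luminescence.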
Mito fusion yeast: inhibitors of mitochondrial division or activators of mitochondrial fusion. S. cerevisiae fusion-defective mutant growth rescue, CellTiterGlo 48 h. Potency, µM (highest dose often 46.1 µM), inactives show at the top dose growth rescue (activation), most hits filed as activators. actives 0.23% (n = 320,000). AID 485298; note: potency is the fitted concentration of half-maximal effect; % of control where 0% means no effect; nearly all actives have a fitted effect of over 45% in size
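Yeast fusion mutant, YPEG (non-fermentable carbon), compound, 48 h at 37C non-permissive; CellTiterGlo added, 10 min RT, luminescence read. Rescued growth = division inhibition.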
A549 tox: A549 cytotoxicity, counter-screen for Nrf2 inhibitors | A549 ARE-Fluc cells, CellTiter-Fluor viability, 18-24 h | Potency, µM (titrated, usually from 46 µM), for inactives: at the highest dose activity change, negative = cytotoxicity, hits mostly inhibitors | actives 0.16% (n = 390,000) | AID 504648; note: potency is the fitted concentration of half-maximal effect; % is set by controls: 0 for no effect and ±100 for the full control effect
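A549 ARE-Fluc cells in 5% FBS OPTI-MEM, 5000 cells/well, rested 2 h then exposed to compounds in concentration-response for 18-24 h at 37 °C. Viability by CellTiter-Fluor fluorescence (Ex 405/Em 525) after 30 min; luciferase luminescence (BugLite, 15 min, RT) read afterwards.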
miR-21 reporter: miR-21 reporter, rising signal. 340,000 tested, under 10 active. Potency, µM (highest dose often 38.3 µM), for the others: at the highest dose reporter change, positive = more light. HeLa miR-21 FLuc reporter, luciferase, 48 h. AID 2288; active = well fitted rising curve with a large enough effect; inconclusive = small, poorly fitted or top-dose-only effect; inactive = no such curve, though single readings can be large or run the other way;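 further: % of control where 0% means no effect; miR-21 action dims this reporter so a rising signal means less miR-21 action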
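HeLa miR-21-FLuc reporter line, endogenous miR-21; 2000 cells/well in DMEM/10% FBS; compound titration up to ~40uM final, 48 h, 37 degree Celsius; luciferase detection reagent, 15 min lysis, CCD luminescence.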
Starred values were filed as active, the others as inactive; ? = inconclusive; · = no result; [ ] = remark or other dose. In the library only some 2.3% were active in any assay of this set; here they are far more common. Unless noted, calls come from the whole dose curve; as a rule, active = well fitted curve in the direction sought with a large enough effect; inconclusive = small, poorly fitted or top-dose-only effect, or another doubt; inactive = no such curve, though single readings can be large; an effect the other way counts as inactive or inconclusive.

nr	Molecule	Nrf2 inh	Nrf2 ARE act	Mito fusion yeast
1	COc1cccc(C2c3c(ncn(-c4ccc(C(C)(C)C)cc4)c3=N)Oc3ccc4ccccc4c32)c1 (stereo not drawn)	?	·	·
2	O=[N+]([O-])c1ccc(Oc2ccc(Oc3ccc(C(F)(F)F)cn3)cc2)nc1	16µM*	0%	-1%
3	CC(C)CN(CCCNC(=O)c1cc(-c2cccs2)nc2ccccc12)CC(C)C	-18%[9.27 µM]	0%	·
4	CN1/C(=C\C(=O)Nc2ccc(Br)cc2)C(C)(C)c2ccccc21	?	0%	-15%
5	CN1/C(=C\C(=S)NC(=O)c2cccc(Br)c2)C(C)(C)c2ccccc21	21µM*	3%	19%
6	CN1/C(=C\C(=O)Nc2ccc(F)cc2)C(C)(C)c2ccccc21	-19%	0%[9.22 µM]	10µM*
7	O=C(OCC#CCSc1nnc(-c2cccc3ccccc23)o1)c1cc(F)c(F)c(F)c1	3%	·	·
8	CCCSc1nnc(NC(=O)Cc2coc3cc(C)ccc23)s1	5%	0%	·
9	N#CCSc1nnc(-c2sc3ccccc3c2Cl)o1	-18%	?	-9%
10	COC(=O)CSc1nnc(-c2sc3ccccc3c2Cl)o1	16µM*	-2%	-1%
11	Cc1cc(C)cc(NC(=O)C(Cc2ccccc2)N2Cc3ccccc3C2=O)c1 (stereo not drawn)	26%	0%	·
12	CCN(CC)C(=O)c1nn(-c2ccccc2)c2c1C1CCC2(C)C1(C)C (stereo not drawn)	16µM*	5%	0%

nr	A549 tox	miR-21 reporter
1	-6%	·
2	0%	8%
3	6%	15%
4	?	-2%
5	-14%	14%
6	1%	0%
7	-3%	·
8	0%	-4%
9	-1%	15%
10	-16%	10%
11	12%	7%
12	-18%	26%

Next section, overlapping the part above by 3 compounds.
nr	Molecule	Nrf2 inh	Nrf2 ARE act	Mito fusion yeast
10	COC(=O)CSc1nnc(-c2sc3ccccc3c2Cl)o1	16µM*	-2%	-1%
11	Cc1cc(C)cc(NC(=O)C(Cc2ccccc2)N2Cc3ccccc3C2=O)c1 (stereo not drawn)	26%	0%	·
12	CCN(CC)C(=O)c1nn(-c2ccccc2)c2c1C1CCC2(C)C1(C)C (stereo not drawn)	16µM*	5%	0%
13	Cc1ccc(C(=O)NNC(=S)NC(=O)c2ccc(Cl)cc2Cl)cc1	21µM*	0%	-4%
14	Cc1ccc(C(=O)NC(=S)NNC(=O)c2ccccc2)cc1	?	0%	7%
15	O=C(NNC(=S)NC(=O)c1ccc(Br)cc1)c1ccc([N+](=O)[O-])cc1	21µM*	3%	1%
16	Cc1ccc(C(=O)NNC(=S)NC(=O)c2ccccc2)cc1	16µM*	4%	·
17	N#Cc1cccc(OC2=NS(=O)(=O)c3ccccc32)c1	11%	·	·
18	COc1ccc(NS(=O)(=O)c2ccc3c(c2)Cc2ccccc2-3)cn1	16µM*	0%	?
19	COc1ccc(NS(=O)(=O)c2ccc(N3CCCC3=O)cc2)cn1	?	-1%	-10%
20	CC(C)S(=O)(=O)N1CCN(c2nc(-c3cccs3)nc3ccccc23)CC1	?	·	·
21	O=c1oc2ccccc2cc1-c1nc(-c2cccs2)no1	·	13µM*	·
22	Cn1c(=O)c2c(nc(NCc3ccccc3)n2C)n(C)c1=O	-11%	4%	0%
23	Cn1c(=O)c2nc(NCc3ccccc3)sc2n(C)c1=O	?	2.5µM*	·
24	CCc1ccc(NC(=O)CC2C(=O)N(c3ccc(Cl)cc3)C(=O)N2Cc2ccco2)cc1 (stereo not drawn)	-14%	8%	·

nr	A549 tox	miR-21 reporter
10	-16%	10%
11	12%	7%
12	-18%	26%
13	-20%	-15%
14	-17%	-3%
15	-2%	-14%
16	?	·
17	10%	·
18	-20%	-1%
19	-9%	20%
20	2%	·
21	7%	-65%
22	4%	-2%
23	-1%	·
24	-22%	-3%

Next records:
nr	Molecule	Nrf2 inh	Nrf2 ARE act	Mito fusion yeast
25	Nc1c(N(CCC2=CCCCC2)C(=O)Cc2ccc(F)cc2)c(=O)[nH]c(=O)n1Cc1ccccc1	?	3%	2%
26	Nc1c(N(CCC2=CCCCC2)C(=O)COc2ccc(F)cc2Cl)c(=O)[nH]c(=O)n1Cc1ccccc1	23µM*	0%	·
27	COc1ccc(C(=O)NC(=S)N(Cc2ccccc2)Cc2ccccc2)cc1	18µM*	5%	6%
28	C=CCN(CC=C)C(=S)NC(=O)c1ccc(OC)cc1	1%	9%	-3%
29	O=C(NC(=S)N(Cc1ccccc1)Cc1ccccc1)c1ccccc1F	12µM*	7%	1%
30	CC(C)Nc1cccc(S(=O)(=O)N2CCCN(S(=O)(=O)c3ccc4c(c3)OCCO4)CC2)c1	?	·	·
31	CC1(C)CC(=O)C(C2C3=C(CC(C)(C)CC3=O)Oc3c(Br)cc(Br)cc32)=C(O)C1 (stereo not drawn)	23µM*	0%	-29%
32	CC1(C)CC(=O)C2=C(C1)OC1=C(C(=O)CC(C)(C)C1)C2c1cc([N+](=O)[O-])cc([N+](=O)[O-])c1O	?	4%	2%
33	C/C(=N\O)c1c(O)cc(-c2ccccc2)n(-c2ccccc2)c1=O	-2%	-1%	2%
34	Cc1c(O)c2c(=O)n(-c3ccccc3)c(-c3ccccc3)cc2oc1=O	17%	0%	10µM*
35	CCOC(=O)c1cnc(-n2nc(C)cc2C)nc1NNc1nc(C)cc(C)n1	-17%	1%	12%
36	CCOC(=O)c1cnc(-n2nc(C)cc2C)nc1NNc1nc(-c2ccccc2)cc(-c2ccccc2)n1	8.2µM*	0%	-7%

nr	A549 tox	miR-21 reporter
25	-11%	·
26	?	·
27	-23%	-9%
28	4%	-16%
29	-19%	12%
30	-3%	·
31	?	-4%
32	?	19%
33	0%	1%
34	1%	-7%
35	5%	-2%
36	?	-1%

The results go on.
nr	Molecule	Nrf2 inh	Nrf2 ARE act	Mito fusion yeast
37	CC(C)(C)c1ccc(C(=O)Nc2ccc(CN3CCS(=O)(=O)CC3)cc2)cc1	7.3µM*	-1%	0%
38	COC(=O)Cc1ccc(NC(=O)c2ccc(C(C)(C)C)cc2)cc1	2.1µM*	-2%	5%
39	O=C(Nc1ccc(CN2CCS(=O)(=O)CC2)cc1)c1ccc(C(F)(F)F)cc1	18µM*	0%	0%
40	COc1ccc(C2Nc3ccccc3C(=O)N2Cc2ccco2)cc1 (stereo not drawn)	-8%	·	·
41	Cc1ccc(Nc2nc(NCc3ccco3)nc3nccnc23)cc1C	14%	·	·
42	COc1ccc(Cn2nnnc2CN(Cc2cc3ccc(C)cc3[nH]c2=O)C2CCCC2)cc1	21µM*	1%	2%
43	COc1ccc(Cl)cc1NC(=O)CSc1nc(=O)[nH]c2c1CCC2	?	6%	·
44	COc1ccccc1N1CCN(S(=O)(=O)c2ccc3[nH]c4c(c3c2)CCCC4)CC1	23µM*	0%	·
45	COc1ccc(NC(=O)CN(C)S(=O)(=O)c2ccc3[nH]c4c(c3c2)CCCC4)cc1Cl	?	5%	·
46	COc1cccc(N2CCN(S(=O)(=O)c3ccc4[nH]c5c(c4c3)CCCC5)CC2)c1	?	4%	·
47	COc1ccccc1N1CCN(S(=O)(=O)c2ccc3nc(-c4ccccc4)[nH]c3c2)CC1	23µM*	3%	?
48	COc1cc(Cl)c(NC(=O)CN(C)S(=O)(=O)c2ccc3[nH]c4c(c3c2)CCCC4)c(OC)c1	23µM*	6%	·

nr	A549 tox	miR-21 reporter
37	-11%	13%
38	?	?
39	-16%	17%
40	-6%	·
41	8%	·
42	?	-7%
43	-2%	4%
44	-12%	18%
45	-3%	15%
46	0%	5%
47	-12%	14%
48	-1%	23%

Given with two lines to a compound: part of the list above
The line under a structure holds: Nrf2 inh	Nrf2 ARE act	Mito fusion yeast	A549 tox	miR-21 reporter
[41] Cc1ccc(Nc2nc(NCc3ccco3)nc3nccnc23)cc1C
 : 14%	·	·	8%	·
[42] COc1ccc(Cn2nnnc2CN(Cc2cc3ccc(C)cc3[nH]c2=O)C2CCCC2)cc1
 : 21µM*	1%	2%	?	-7%

Screening results as filed in PubChem.
